Ab-14 light chain CDR variants: yeast mating affinities

Values reported by Li et al. 2023, doi:10.1038/s41467-023-39022-2 (FLAb copy).

The target is the same throughout: PDVDLGDISGINAS, from the HR2 region of SARS-CoV-2 spike.

Ab-14 is the parent antibody, in scFv form: VH, then three GGGGS repeats, then VL. The heavy chain is unchanged in all variants.
VH: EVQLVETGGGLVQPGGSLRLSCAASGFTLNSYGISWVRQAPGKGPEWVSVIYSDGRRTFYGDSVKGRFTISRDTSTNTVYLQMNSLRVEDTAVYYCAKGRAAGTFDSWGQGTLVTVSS
VL: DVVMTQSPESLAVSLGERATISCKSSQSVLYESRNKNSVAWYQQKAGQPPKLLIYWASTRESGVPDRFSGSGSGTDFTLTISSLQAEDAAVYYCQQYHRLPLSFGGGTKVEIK

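Phage display of a naive human antibody library on the peptide gave the parent. Designed CDR sequences, proposed from the first random library and measured here. Several design methods are mixed in this list. The assay is AlphaSeq: two haploid yeast populations carry antibody and antigen on their surface. Binding brings cells together so that they mate, and sequencing counts the barcode pairs among the diploids. A regression on co-assayed BCL2-family reference pairs converts the normalised counts of each replicate to an apparent Kd. There are six technical replicates.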

Each variant is given by its three light chain CDRs, as the data file delimits them; those of the parent are KSSQSVLYESRNKNSVA, WASTRES, QQYHRLPLS. This list holds designs with more than six substitutions. Each Kd is an estimate from the mating assay, the geometric mean of the replicates in which the pair was seen; lower is stronger. A pair that was not seen in any replicate is written "no signal"; this usually means weak binding, but a binder can also be missed.

CDR-L1,CDR-L2,CDR-L3,Kd (apparent),detected,empty controls
KMEQSDLLESRNVQSVA,QASTRES,QQYHRLPLS,1.6 nM,6 of 6,1 of 18
HIGLSTMLEEYVRNSVA,NNSTREK,QQYDRLPLS,790 nM,5 of 6,3 of 18
NVGQLMDGELRNKNSVA,HQSTRED,QHYHRLPLS,18 nM,6 of 6,2 of 18
MISQLFMYGSRKYNSVA,QASTRES,QQYDRLPLI,31 nM,5 of 6,3 of 18
HVNHEYLDYKNYENNIA,HGSQRLY,QQYSHLPLS,1.9 nM,6 of 6,1 of 18
IVSQLMLWGMHVKNSIA,EAVTRLN,QQYDRLPLI,no signal,0 of 6,0 of 18
KISSATTFESRNKNSVA,ENSTRES,QSYHRLPLS,no signal,0 of 6,0 of 18
TISTSANYESTKGNSVA,ELTTRGS,QQYERLPLS,12 nM,6 of 6,1 of 18
TIDQYTSYENGENWAIA,DVSIKDY,QQYARLPLL,7.1 nM,6 of 6,0 of 18
SLMHLSFVHPREWNNVA,DASVKAS,QQYFRLPLV,3.5 nM,6 of 6,1 of 18
KISMLYNYESVNKNSIA,EMTTRES,QHYHRLPLS,2.9 nM,6 of 6,1 of 18
KVSEFMKGLMMRKDSIA,DNNTRSS,QQYDRLPLS,16 nM,6 of 6,0 of 18
RLSQTEEMDIRDYNAVA,NGSTVNT,QHYSRLPIS,390 nM,1 of 6,1 of 18
KIGMVLNTLLHQKNNVA,DLVTREN,QQYFRLPLS,5.0 nM,6 of 6,0 of 18
KLSQGTYGLTQHASNVA,HDEMRWA,QQYDKLPLI,no signal,0 of 6,0 of 18
MISQLMNMGTFAINSVA,QATIRNE,QQYDRLPLQ,160 nM,6 of 6,1 of 18
YMSGQEPGDWNQQEAIA,EVTYKEH,QQYYRLPLS,no signal,0 of 6,0 of 18
KLTSVTGTEKVRGNNVA,EMETRER,QQYNRLPLA,1.4 nM,6 of 6,1 of 18
KLQQSWEYESRNSNSVA,QASTRMA,QQYHRLPLS,2.2 nM,6 of 6,1 of 18
MISQLMQMGQFAINSVA,QASLRYN,QQYDRLPLM,no signal,0 of 6,0 of 18
KLSQEVMMGDRNKNSVA,KASQRLS,QQYHRLPLS,3.3 nM,6 of 6,0 of 18
IFSQSVMMGNMTRNSVA,QASERFN,QQYDRLPLI,48 nM,6 of 6,0 of 18
KISQMVRVGSTVSNSIA,EEVTRAK,QQYHRLPLS,3.5 nM,6 of 6,0 of 18
KISQMVRVGSTHNNSIA,EEAKRAD,QQYHRLPLA,5.7 nM,3 of 6,1 of 18
TISNSFMMENQFKNSVA,QAQTREN,QCYDRLPLS,77 nM,6 of 6,1 of 18
KLQGSMLYEQRMKNSVA,NASQRMS,QQYHRLPLS,2.9 nM,6 of 6,0 of 18
HISYSMAHMSKNKNSVA,NQQTRES,QQYHRLPLS,10 nM,5 of 6,1 of 18
KLSQSVMFMSGVYNSVA,QMSTRAE,QQYNRLPLA,3.9 nM,6 of 6,2 of 18
KSSQQVLYEDKNVNSVA,HASQRMS,QQYHRLPLS,23 nM,6 of 6,1 of 18
DLTVNDNGISQMQSSIA,SGVEKCT,QQYSRLPLA,67 nM,6 of 6,1 of 18
KSSKSVLYEMRQKNSVA,NASERED,QTYHRLPLS,7.9 nM,6 of 6,0 of 18
KIGMTLNLLYEKKNNVA,DLVMREN,QQYHRLPLS,8.6 nM,6 of 6,1 of 18
IFSQSVLMGNLTKNSVA,QASTRFD,QQYHRLPLI,57 nM,6 of 6,0 of 18
QLLMATMQGTYNRNSVA,HAQMRND,QSYHRLPLS,15 nM,6 of 6,0 of 18
QLYEMSYELSGKTHSVA,DNSTRGD,QQYFRLPLE,14 nM,6 of 6,0 of 18
NFSQMVLTGSTLRNSVA,HASTRFN,QQYHRLPLI,98 nM,6 of 6,1 of 18
MISDLTYVGMRNVNSVA,DLSTRGN,QQYDRLPLS,6.1 nM,6 of 6,0 of 18
HLSQSQDYESRNKNSVA,NASQRLH,QQYHRLPLS,630 pM,6 of 6,1 of 18
KLSQSVRMESFQKNSVA,ENSTREA,QDYHRLPLS,360 nM,2 of 6,2 of 18
KVQQSELGLSRNKNSVA,QASKRES,QQYHRLPLS,1.8 nM,6 of 6,1 of 18
TISQSAQQEMHNKNSVA,DLSVRGS,QQYHRLPLS,2.9 nM,6 of 6,2 of 18
IIGQSVMFEQTLINSVA,NAQTRES,QQYHRLPLS,3.7 nM,6 of 6,2 of 18
KCEQSWWYESRVKNNVA,NASQRES,QQYHRLPLS,4.9 nM,6 of 6,1 of 18
HLGGLMTWESKNRNSVA,QQETRAE,QQYHHLPLS,2.4 nM,6 of 6,1 of 18
KVSQCMLYESRNANSVA,NASQREE,QQYHRLPLS,1.4 nM,6 of 6,1 of 18
QMELMYEDVGHQMNSIA,DETMKPA,QQYLRLPLH,110 nM,6 of 6,0 of 18
RLLDWYYGQTAMDSNIA,DQALEMD,QQYSRLPLT,21 nM,1 of 6,0 of 18
KFSQSFLYWSRNSNAVA,EASTRES,QDYHRLPLS,4.1 nM,6 of 6,1 of 18
IISQSSLGEYHNKNSVA,QTSERGS,QQYDRLPLS,1.4 nM,6 of 6,3 of 18
KLYQSVGTMSHNKQSIA,DMERRED,QQYNRLPLS,500 pM,6 of 6,1 of 18
QMTLSHGMWLNAAQSIA,DKSSVME,QQYAWLPLS,210 nM,5 of 6,0 of 18
HISQSVGMTSFQKNSVA,ENSTREN,QQYDRLPLS,320 nM,3 of 6,1 of 18
FIGGNYYDKYQASNSIA,DEAHLMA,QQYDLLPLS,12 nM,6 of 6,0 of 18
KMQQSVWYEQRNFNSVA,NGSTREQ,QQYHRLPLS,1.7 nM,6 of 6,0 of 18
KQSQSWLFEHRNPNSVA,FLSTRES,QQYNRLPES,250 nM,1 of 6,1 of 18
MITGSMEQEWSNKNPVA,SATDKAP,QSYFRLPLM,7.0 nM,6 of 6,1 of 18
KLSCSELYDEPNSNSVA,NASTREM,QQYHRLPLS,820 pM,6 of 6,2 of 18
TIGQTLMIGTRNRSNVA,EVSQRLN,QQYDRLPLM,6.8 nM,6 of 6,0 of 18
KVQQSMEYESRNKNSVA,EASDRES,QDYHRLPLW,43 nM,6 of 6,1 of 18
MMSQVSGLGQRTRNNVA,QTSTREP,QQYDRLPLI,4.9 nM,6 of 6,1 of 18
IISQSVLGGYHNKNSVA,QTSERGQ,QQYDRLPLS,2.6 nM,6 of 6,0 of 18
KCSQDVCYGDRNKNSVA,NASTREQ,QQYHRLPLS,610 pM,6 of 6,2 of 18
KLSMSDLYEWRNFNSVA,NASTREE,QQYHRLPLS,1.5 nM,6 of 6,0 of 18
FMEMDFQENSGNHNSVA,SEEVKTR,QHYGRLPLS,no signal,0 of 6,1 of 18
RLTEHQYMRAYANAAVA,DASTRND,QQYHRLPLE,4.5 nM,6 of 6,0 of 18
KLSLFYRVETVQKNSVA,DNSTRES,QDYDRLPLS,570 nM,3 of 6,0 of 18
KIQQSVYYEDRNKNSVA,SASTRCP,QQYHRLPLS,890 pM,6 of 6,2 of 18
KSSNSTLYEDGMKNSVA,NASKRES,QQYHRLPLS,1.9 nM,6 of 6,0 of 18
KLYQVGLGSQKVDRSIA,ETSTRCT,QSYQRLPLS,22 nM,5 of 6,0 of 18

Of ten entries with the parent sequence, four were seen in most replicates (averages 2.2 nM to 240 nM), three in one and three in none, so single entries are noisy. The range of this assay differs from that of the first round, and the authors advise against merging the two. As a blank, each scFv also met three strains without target: over all light chain designs, 4% of these pairings were detected, typically at 430 nM and seldom below 38 nM. For each scFv, signals with the empty controls are counted beside the result. The authors' rule: three or more of the six replicates give a measured affinity, fewer mean a poor binder.